# Laboratory results published in patent US10765664B2, “Treatment of infectious diseases” (CHILDREN'S MEDICAL CENTER CORPORATION, priority 2015, dated 2020).
# System: IFITM3
# Assay: IFITM3 mRNA in THP-1 cells stimulated with cytokines or TLR agonists, real time PCR
# Assay type: cell-based, human
molecule,measurement,setting,value
"IFN-β: recombinant IFN-β, positive control for IFITM3 induction (protein, UniProt P01574 22-187, looked up) Interferon beta: MSYNLLGFLQRSSNFQCQKLLWQLNGRLEYCLKDRMNFDIPEEIKQLQQFQKEDAALTIYEMLQNIFAIFRQDSSSTGWNETIVENLLANVYHQINHLKTVLEEKLEKEDFTRGKLMSSLHLKRYYGRILHYLKAKEYSHCAWTIVRVEILRNFYFINRLTGYLRN",increase in IFITM3 mRNA,24 hours,~6 fold
same,increase in IFITM3 mRNA,48 hours,~12 fold
